Key:
[1] = RP TLC on non-impregnated control plates; assay type: physicochemical; conditions: Table S4, non-impregnated RP plate; acetonitrile/acetate buffer pH 7.4/methanol 60:20:20
[2] = NP TLC on non-impregnated control plates; assay type: physicochemical; conditions: Table S3, non-impregnated NP plate; acetonitrile/acetate buffer pH 7.4/methanol 60:20:20

Row | Structure (SMILES) | CRP (Rf, control RP plate) [1] | CNP (Rf, control NP plate) [2]
1 | CN1[C@@H]2CC[C@H]1C[C@@H](OC(=O)C(CO)c1ccccc1)C2 (some centres unmarked) [atropine] | 0.73 | 0.27
2 | CN1C(=O)CN=C(c2ccccc2)c2cc(Cl)ccc21 [diazepam] | 0.77 | –
3 | O=C1Nc2ccc(Cl)cc2C(c2ccccc2)=NC1O (centres unmarked) [oxazepam] | 0.83 | 0.93

Source: publication PMC9182007, “Statistical Methods in the Study of Protein Binding and Its Relationship to Drug Bioavailability in Breast Milk” (Molecules, 2022)
